# Yeast mating assay B: variants of the scFv Ab-14

Target: peptide PDVDLGDISGINAS, taken from heptad repeat 2 (HR2) of SARS-CoV-2 spike.

Parent: Ab-14, a human scFv built as VH, three GGGGS repeats, VL. Only the CDRs of the heavy chain vary.
VH: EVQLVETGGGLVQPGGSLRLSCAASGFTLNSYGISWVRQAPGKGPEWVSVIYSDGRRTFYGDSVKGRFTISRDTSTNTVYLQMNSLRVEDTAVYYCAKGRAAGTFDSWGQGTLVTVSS
VL: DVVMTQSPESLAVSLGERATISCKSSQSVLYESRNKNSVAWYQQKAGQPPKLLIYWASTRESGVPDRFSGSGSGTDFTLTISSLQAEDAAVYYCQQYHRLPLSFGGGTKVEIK

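Phage display of a naive human antibody library on the peptide gave the parent. This is the validation round: designs drawn from the data on random variants, tested in the same kind of assay. Several design methods are mixed in this list. AlphaSeq pools MATa yeast showing the antibodies with MATalpha yeast showing the peptide. After mating in shaken culture at 30 °C for 16 h, diploids were selected and their barcode pairs sequenced. The ratio of observed to expected reads was calibrated, replicate by replicate, on BCL2-family standards whose Kd was known from biolayer interferometry. The assay was run in six technical replicates.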

The parent's heavy chain CDRs are GFTLNSYGIS, VIYSDGRRTFYGDSVK, GRAAGTFDS; each variant's own CDRs replace them letter for letter.
This list holds designs with at most six substitutions.
Affinities are written as log10 Kd with Kd in nM; a lower number is a better binder.
"ND" means that the variant was in the library but no mating with the target was seen in that replicate; the authors take this as a sign of poor binding, and no number exists.

Variant GFTLNSYGIS / VIYSDGRRTFYGDSVK / GRAAGGFDS gave ND, ND, ND, ND, 2.20, ND. Variant GFNLNSYGIS / VIYSDGRRTAYGDSVK / GRQAGTFDS showed 1.30, 0.96, 1.21, 0.82, 1.17, 1.21. Variant MFDLNSYGIS / VIYSDGRRTFYGDSVK / GRTAGTFDS gave 1.27, 2.98, 1.42, 1.22, 2.06, 1.85. Variant GFDLNSYGIS / VIYSDGRRTFYADSVK / GQTAGTFDS gave 0.48, 0.12, -0.07, 0.06, -0.02, -0.07. Variant GFTLNSYGIS / VIYSDGRRTAYNDSVK / GRAAGTFDS gave ND, ND, 2.22, ND, 3.46, 1.96. Variant GFMLNSYGIS / VIYSDGRRTFYGDSVR / GRAAGRFDS gave 1.08, ND, ND, 1.46, 1.86, ND. For GFSLNSYGIS / VIYSDGRRTFYGDSVK / GWAAGTFDQ, the assay gave ND, 1.33, ND, 1.48, 1.63, 2.14. With GFTLGSYGIS / VIYSDGRRTFYGDSVK / GRHAGTFDS the result was ND, ND, ND, 2.97, ND, ND. Variant GFTLNQYGIS / VIYSDGRRTFYSDSVK / GTAAGTFDS gave -0.60, -0.25, 0.04, -0.42, -0.25, 0.49.

For GFTLNQYGIS / VIYSDGRRTFYGDAVK / GSAAGTFDS, the assay gave 0.13, -0.17, 0.25, 0.26, -0.31, 0.21. Variant GFTLNSYGIS / VIYADGRRTFYGDSVK / GRTAGTFDS showed 1.53, 1.28, 1.11, 1.25, 1.59, 2.64. Variant GFTLDSYGIS / VIYSDGRRTFYGDSVK / GRAAVTFDQ showed ND, ND, ND, ND, ND, ND. Variant GFTLNSYGIS / VIYSDGRRTFYSDSVK / GEAGGTFDT gave ND, ND, ND, 1.85, ND, 2.42. For GFTLNSYGIS / VIYSDGSRTFYGDSVK / GREAGQFDS, the assay gave 1.73, ND, ND, ND, ND, ND. For GFELNSYGIS / VIYSDGKRTFYADDVK / GRQAGTFDS, the assay gave 0.87, 1.52, 1.81, 1.37, 1.66, 2.34. For GFDLNSYGIS / VIYSDGRRTAYGDNVK / GRTAGTFDS, the assay gave -0.34, -0.58, -0.05, -0.34, -0.46, -0.24. For GFTLESYGIS / VIYADGRRTFYGDSVK / GKAAGTFDA, the assay gave 0.41, 0.04, 0.38, 0.24, 0.25, 0.11. For GFDLNSYGIS / VIYSDGRRTFYGDSVK / GRAAAIFDS, the assay gave ND, ND, ND, ND, ND, ND.

For GFTLNSYGIH / VIYSDGRRTFYEDSVK / GRFAGTFDS, the assay gave 0.20, 0.74, 0.71, 0.06, -0.03, 0.83. Variant GFDLNSYGIS / VIYSDGRRTAYGDSVK / GKAAGTFDT showed 0.44, -0.38, -0.08, 0.15, 0.49, 0.17. Variant GFELNDYGIS / VIYSDGRRTFYSDSVK / GRTAGTFDS gave -0.77, -1.04, -0.75, -0.30, -0.84, 0.84. Variant GFTLNWYGIS / VIYADGRRTRYGDSVK / NRAAGTGKS showed ND, ND, ND, ND, ND, ND. With GFTNNSYGIS / VIYSDGRRTFYRDSVK / GRAVGTFDS the result was ND, ND, ND, ND, ND, ND. For GFHLNSYGIS / VIYSDGRRTFYGDSVK / GRVAGTFDS, the assay gave ND, 2.26, 1.29, ND, 1.69, 1.83. Variant GFTLNDYGIS / VIYRDGRRTFYGDSVK / GRAALTFIS gave ND, ND, ND, ND, ND, ND. With GFSLNWYGIS / VIYSDGRRTQYIDSVK / GRAAGTFDS the result was ND, 1.97, 2.75, 2.06, 2.63, ND. Variant GFTLESYGIS / VIYSDGRRTFYGDSVK / GREAGAFDS showed 1.20, 1.61, 2.38, 1.40, 1.68, ND.

Variant GFELNSYGIS / VIYSDGKRTFYIDSVK / GRQAGTFDS showed 0.78, 1.20, 1.70, 1.65, 1.14, 1.21. Variant GNTLNSYGIS / VIYSDGRRTFYIDSTK / GRGAGTPDS showed ND, ND, ND, ND, ND, ND. For GFTLNMYGIS / VIYSDGMRTFYSDSVK / GRAAGTFDS, the assay gave 1.02, 0.51, 1.31, 0.87, 0.47, 0.96. Variant GFTLESYGIS / VIYSDGRRTFYIDSVK / GQAAGTFDS showed ND, 1.75, 0.94, ND, ND, 2.25. Variant GFQLNEYGIS / VIYSDGRRTFYADSVK / GTAAGTFDS gave 0.27, 0.21, -0.22, 0.50, -0.37, 0.34. Variant GFSLNSYGIS / VIYSDGRRTFYGDPVK / GMTAGTFDS gave 0.34, 0.06, 0.36, -0.03, 0.03, 0.20. For GFSLNSYGIS / VIYSDGRRTFYTDSVK / GTAAGTFDS, the assay gave -0.10, -0.17, -0.41, -0.21, 0.10, -0.04. For GFDLNSYGIS / VIYSDGRRTAYGDNVK / GRNAGTFDS, the assay gave -0.07, -0.50, 0.20, -0.30, -0.12, -0.07. For GFTLNSYGIS / VIYSDGRRTFMSDSVK / GRAAGTFDS, the assay gave 0.88, 1.49, 1.19, 2.10, 2.01, 2.01.

Variant GFELNMYGIS / VIYSDGRRTFYIDSVK / GREAGTFDS showed 1.08, 1.18, ND, -0.19, 1.04, ND. Variant GFTVNSYGIS / VIYSDGRRTFYGDSVK / GRASGTFDS showed ND, ND, ND, ND, ND, ND. Variant GFTLNSYGIS / VIYSDGRRTQYYDSVK / GRSAGTFES gave ND, ND, ND, ND, ND, ND. Variant KFTLNEYGIS / VIYSDGRRTFYGDSVK / GRHAGTFDS showed ND, 0.99, 1.21, ND, ND, 1.19. With GFTLNSYGIS / VIYSDGMRNFYSDSVK / GRNAGWFTS the result was ND, ND, ND, ND, ND, ND. For GFDLNSYGIS / VIYSDGRRTAYGDHVK / GRNAGTFDS, the assay gave 0.20, 0.31, 0.24, -0.35, 0.09, 0.26. Variant GFTLESYGIS / VIYADGRRTFYADSVK / GRAAGTFDS showed 0.08, -0.28, -0.32, -0.45, -0.51, -0.34.

Excerpt, the first 5 entries:

| CDR-H1 | CDR-H2 | CDR-H3 | replicates, log10 nM |
|---|---|---|---|
| GFTLNSYGIS | VIYSDGRRTFYGDSVK | GRAAGGFDS | ND, ND, ND, ND, 2.20, ND |
| GFNLNSYGIS | VIYSDGRRTAYGDSVK | GRQAGTFDS | 1.30, 0.96, 1.21, 0.82, 1.17, 1.21 |
| MFDLNSYGIS | VIYSDGRRTFYGDSVK | GRTAGTFDS | 1.27, 2.98, 1.42, 1.22, 2.06, 1.85 |
| GFDLNSYGIS | VIYSDGRRTFYADSVK | GQTAGTFDS | 0.48, 0.12, -0.07, 0.06, -0.02, -0.07 |
| GFTLNSYGIS | VIYSDGRRTAYNDSVK | GRAAGTFDS | ND, ND, 2.22, ND, 3.46, 1.96 |

A sequence measured in both rounds can read differently, since the two assays cover different ranges.
In the paper, a design with two or fewer of six values counts as a poor binder.
Empty control strains, which show no peptide, gave a signal in 1% of pairings with all heavy chain designs; the median was 2.08 and 95% of these signals were weaker than 0.84. No background was subtracted.
Of ten entries with the parent sequence, four were seen in most replicates (averages 0.34 to 2.37), three in one and three in none, so single entries are noisy.

Reference: Li et al. 2023, doi:10.1038/s41467-023-39022-2. File: FLAb, binding data.